Measured values: ChEMBL document CHEMBL3763103, “Synthesis and evaluation of vitamin D receptor-mediated activities of cholesterol and vitamin D metabolites” (Eur J Med Chem, 2016)

Experiments:
[1] = molecular target: T1, Vitamin D3 receptor (Homo sapiens) (UniProt P11473); assay: Agonist activity at VDR-LBD in human DU145 cells assessed as CYP24A1 expression at 7.5 uM after 18 hrs by qRT-PCR method relative to 1alpha,25-dihydroxyvitamin D3; format: cell-based; details: DU-145
T1 sequence (whole entry): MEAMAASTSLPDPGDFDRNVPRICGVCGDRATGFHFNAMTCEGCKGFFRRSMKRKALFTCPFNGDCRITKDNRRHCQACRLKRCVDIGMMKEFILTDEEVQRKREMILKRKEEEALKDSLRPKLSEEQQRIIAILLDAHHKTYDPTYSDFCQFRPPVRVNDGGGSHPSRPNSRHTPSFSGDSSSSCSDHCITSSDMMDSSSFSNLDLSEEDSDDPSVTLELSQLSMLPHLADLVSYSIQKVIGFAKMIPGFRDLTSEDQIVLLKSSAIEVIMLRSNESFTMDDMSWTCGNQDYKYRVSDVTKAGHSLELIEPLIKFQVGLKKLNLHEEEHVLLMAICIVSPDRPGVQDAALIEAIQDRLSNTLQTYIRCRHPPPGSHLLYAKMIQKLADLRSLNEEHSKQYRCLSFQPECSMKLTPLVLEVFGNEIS
In short: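 Non-transfected DU145 cells were grown in DMEM with 10% heat-inactivated FBS and plated on matrigel-coated 6-well plates overnight at 37°C. Total RNA was isolated and CYP24A1 fold change was measured by real-time RT-PCR (Ct method). Experiments were run in triplicate; significance by Dunnett ANOVA.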

[2] = molecular target: T1, Vitamin D3 receptor (Homo sapiens); assay: Agonist activity at VP16 tagged-VDR-LBD (unknown origin) expressed in HEK293T cells assessed as SRC1 coactivator peptide recruitment after 16 hrs by luciferase reporter gene based two hybrid assay relative to 1,25-dihydroxyvitamin D3; format: cell-based; details: HEK-293T
In short: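 HEK293T cells were lipid-transfected with VP16-VDR-LBD, SRC1-GAL4 and 4×UAS luciferase reporter plasmids for 16 h. Cells were then plated at 15,000/well on matrigel in phenol-red-free DMEM with 2% charcoal-treated FBS. Three experiments in quadruplicate; nonlinear regression.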

In the case of `CC(=O)O[C@@H]1CC[C@@]2(C)[C@H](CC[C@@H]3[C@@H]2CC[C@]2(C)[C@@H]([C@H](C)CCC(=O)O)CC[C@@H]32)C1`, the Activity [1] is reported as 24% and the Efficacy [2] is reported as 94%.
